# Source: patent US20070196883
# B1: wild type GST-PDK1 (protein)
# chain: MARTTSQLYDAVPIQSSVVLCSCPSPSMVRTQTESSTPPGIPGGSRQGPAMDGTAAEPRPGAGSLQHAQPPPQPRKKRPEDFKFGKILGEGSFSTVVLARELATSREYAIKILEKRHIIKENKVPYVTRERDVMSRLDHPFFVKLYFTFQDDEKLYFGLSYAKNGELLKYIRKIGSFDETCTRFYTAEIVSALEYLHGKGIIHRDLKPENILLNEDMHIQITDFGTAKVLSPESKQARANSFVGTAQYVSPELLTEKSACKSSDLWALGCIIYQLVAGLPPFRAGNEYLIFQKIIKLEYDFPEKFFPKARDLVEKLLVLDATKRLGCEEMEGYGPLKAHPFFESVTWENLHQQTPPKLTAYLPAMSEDDEDCYGNYDNLLSQFGCMQVSSSSSSHSLSASDTGLPQRSGSNIEQYIHDLDSNSFELDLQFSEDEKRLLLEKQAGGNPWHQFVENNLILKMGPVDKRKGLFARRRQLLLTEGPHLYYVDPVNKVLKGEIPWSQELRPEAKNFKTFFVHTPNRTYYLMDPSGNAHKWCRKIQEVWRQRYQSHPDAAVQ
# Molecular target: GST-PIF (glutathione-S-transferase fusion of the C-terminal 77 amino acids of PRK2)
protein,measurement,value
B1,rate of phosphorylation of Thr308 against Ser473 of PKBα by the GST-PIF*/PDK1 complex,phosphorylates Thr308 of PKBα at twice the rate of Ser473
